Source: PubChem BioAssay AID1626 (SRMLSC, 2009)

Tested on: M. tuberculosis H37Rv growth inhibition
Assay: M. tuberculosis H37Rv growth inhibitors, H37Rv strain (AID 1626)
Conditions: for IC90: measured here: IC90 against H37Rv

| SMILES | IC50 | IC90 |
| --- | --- | --- |
| C1CCC(C(CC2CCCCN2)C2CCCCC2)CC1 (configuration not stated) | 6.3 µM | 10.4 µM |
| O=c1[nH]c2ccccc2n1C1CCN(CCCC(c2ccc(F)cc2)c2ccc(F)cc2)CC1 | 2.17 µM | 3.78 µM |
| O=C(Nc1ccc(Cl)cn1)c1ccc([N+](=O)[O-])o1 | 6.23 µM | 7.18 µM |
| Cc1[nH]n(-c2ccccc2)c(=O)c1C=Nc1ccc(S(=O)(=O)Nc2nccs2)cc1 | 5.9 µM | > 100 µM |
| Cc1cccc(NC(=O)c2ccc([N+](=O)[O-])o2)c1 | 5.65 µM | 6.16 µM |
| Cc1cccc(CN2CCN(C(c3ccccc3)c3ccc(Cl)cc3)CC2)c1 (configuration not stated) | 16.3 µM | 20.5 µM |
